Measured values as given in patent US11931424B2, “Combination MCL-1 inhibitors with anti-body drug conjugates” (Gilead Sciences, Inc., priority 2021, dated 2024).

Test system: panel of breast cancer cell lines
Assay: Compound A with targeted agents and chemotherapies, 72-hour in vitro proliferation assays
Assay type: cell-based
Settings: compound A × partner, 72-hour proliferation

Compound	Loewe Volume (HCC38)	HSA volume (HDQ-P1)	Synergy Score (HDQ-P1)
CC1(C)CCC(c2ccc(Cl)cc2)=C(CN2CCN(c3ccc(C(=O)NS(=O)(=O)c4ccc(N[C@H](CCN5CCOCC5)CSc5ccccc5)c(S(=O)(=O)C(F)(F)F)c4)cc3)CC2)C1 [ABT-263]	20.66		
COc1cccc2c1C(=O)c1c(O)c3c(c(O)c1C2=O)C[C@@](O)(C(=O)CO)C[C@@H]3O[C@H]1C[C@H](N)[C@H](O)[C@H](C)O1 [Doxorubicin Hcl]		−1.23	3.52

Structures can show the parent of a compound that is named as a salt.
